In US20040038861A1, “Methods and compositions for normalizing lipid levels in mammalian tissues” (priority 2001, published 2004):

Assays:
[1] = tested on: soleus muscle; assay: Lipid metabolites (free fatty acid, glycerol, triglyceride; enzymatic analysis) in isolated soleus muscle from normally fed rats; assay type: cell-based, rat; details: 1 h, 100 nM amylin or CGRP-1, 4.4 μM norepinephrine, 23.7 nM insulin, control 78±21
[2] = target: T1, murine ramp 1/C1ins- receptor (murine, UniProt Q60755); assay: displacement of 20 nM [^3H]amylin, L6 myoblasts co-transfected with murine ramp 1 and C1ins-
T1 sequence 1: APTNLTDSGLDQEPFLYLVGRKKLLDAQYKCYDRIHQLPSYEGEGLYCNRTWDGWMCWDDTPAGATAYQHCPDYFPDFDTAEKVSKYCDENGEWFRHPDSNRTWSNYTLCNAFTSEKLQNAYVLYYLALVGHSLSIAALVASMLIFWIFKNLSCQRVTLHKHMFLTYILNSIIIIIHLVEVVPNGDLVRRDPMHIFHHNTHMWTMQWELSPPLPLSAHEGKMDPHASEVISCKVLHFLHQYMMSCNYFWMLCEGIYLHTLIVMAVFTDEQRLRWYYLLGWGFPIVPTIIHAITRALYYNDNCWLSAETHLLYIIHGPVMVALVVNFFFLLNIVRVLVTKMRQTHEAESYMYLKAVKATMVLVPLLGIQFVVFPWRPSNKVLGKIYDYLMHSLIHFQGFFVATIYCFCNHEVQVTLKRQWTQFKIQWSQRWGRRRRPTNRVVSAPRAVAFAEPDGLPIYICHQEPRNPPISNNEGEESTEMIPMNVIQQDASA
T1 sequence 2: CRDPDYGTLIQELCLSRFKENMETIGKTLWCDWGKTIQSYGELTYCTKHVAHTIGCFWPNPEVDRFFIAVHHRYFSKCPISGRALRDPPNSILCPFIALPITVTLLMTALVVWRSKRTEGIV
Text: (§1) Cells were then washed and bound radioactivity determined by liquid scintillation counting. […] Each point represents the mean±SEM of three independent myoblast transfections from an experiment repeated at least twice.

[3] = target: T1, murine ramp 1/C1ins- receptor; assay: displacement of 20 nM [^3H]amylin, co-transfected L6 myoblasts; Cheng and Prusoff with Kd […]
Text: as §1
95% confidence intervals (nM) are bracketed.

- IC50 [2]: 23 nM
- Ki [3]: 7.4 nM
B1: rat amylin (ligand)
peptide: KCNTATCATQRLANFLVRSSNNLGPVLPPTNVGSNTY
modifications: intra-molecular disulfide bond between the 2nd and 7th Cys residues; C-terminal amide (NH2)

- IC50 [2]: 1270 nM
- Ki [3]: 399 nM
Molecule: ATQRLANFLVRSSNNLGPVLPPTNVGSNTY (C-terminal amide (NH2)) [^8,37rat amylin]

- IC50 [2]: 1.9 nM
Molecule: CSNLSTCVLGKLSQELHKLQTYPRTNTGSGTP (ligand) [salmon calcitonin]

The remaining lines, values behind:

Molecule: rat CGRP-1
- intramuscular free fatty acid content [1]: 325 ± 56 nmol/g

B2: rat CGRP-1 (ligand)
peptide: SCNTATCVTHRLAGLLSRSGGVVKDNFVPTNVGSEAF
modifications: intra-molecular disulfide bond between the 2nd and 7th Cys residues; C-terminal amide (NH2)
- IC50 [2]: 63 nM

Each block holds one molecule with its values, some of them ahead of it.
